The results in this text go back to PubChem BioAssay AID720702 (The Scripps Research Institute Molecular Screening Center, 2013).

Protein sequences, listed by entry. Tags and fused reporters are not part of them.
UniProt O95551, whole entry: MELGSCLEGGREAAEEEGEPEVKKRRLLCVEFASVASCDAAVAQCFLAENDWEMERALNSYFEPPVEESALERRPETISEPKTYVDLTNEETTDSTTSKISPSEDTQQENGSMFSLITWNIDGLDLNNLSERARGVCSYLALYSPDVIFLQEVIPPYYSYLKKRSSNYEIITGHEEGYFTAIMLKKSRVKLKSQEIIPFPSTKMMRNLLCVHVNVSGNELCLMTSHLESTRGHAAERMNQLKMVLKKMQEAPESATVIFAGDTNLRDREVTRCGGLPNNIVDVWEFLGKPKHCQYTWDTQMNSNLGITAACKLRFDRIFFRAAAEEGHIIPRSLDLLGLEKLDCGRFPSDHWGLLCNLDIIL

Usually inhibition stands for the change of the read-out against control, counted positive when it falls.

Only a part is listed here, and it is no random draw. Activity calls are given as the source filed them.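 How the source made its calls: active means inhibition above the mean of all tested compounds plus 3 SD, set per campaign (cut at about 25% in these data); inactive means the rest.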

The test concerns the target Tyrosyl-DNA phosphodiesterase 2 (Homo sapiens) (UniProt O95551). In words: blockers of TDP2 phosphodiesterase activity – biochemical, epi absorbance, recombinant enzyme, primary screen (AID 720702).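 Further: 0% = DMSO with enzyme and 100% = buffer with substrate but no TDP2.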 Particulars: recombinant TDP2, T5PNP hydrolysis, p-nitrophenol absorbance 415 nm; at 12.8 µM; stronger effect = higher value. The procedure, abridged:
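Incubation: 2 h at 37 °C; Test system: recombinant human TDP2; Quantity: enzyme 120 nM; Read-out basis: percent inhibition; Medium: 50 mM Tris-HCl pH 7.5 with Mg2+, KCl, DTT, BSA; Repeats: single replicate; Compound: 12.8 µM single point, 1% DMSO; Signal: epi absorbance; Reagent: 5 mM T5PNP chromogenic substrate; Benchmarks: no-enzyme high, DMSO-plus-enzyme low.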
On to `O=c1[nH]c2ccccc2n1C1CCN(C(c2ccccc2OC(F)(F)F)c2nnnn2C2CCCCC2)CC1` (stereo not given), for which the inhibition was inactive: -11%.
`O=C(NCC1(N2CCCCC2)CCCCC1)c1ccc(Cl)nc1`: the inhibition is inactive: -8.94%.
Next, `Cc1cc(C)cc(N(C(=O)c2ccccc2)C2CCN(C(=O)OC(C)(C)C)CC2)c1`: inactive: -18.3%; `O=C(NCC1(N2CCOCC2)CCCCC1)c1cc2ccccc2o1`: inactive: 4.22%.
Next, `O=c1[nH]c2ccccc2n1C1CCN(C(c2cc3ccccc3o2)c2nnnn2C2CCCCC2)CC1` (stereo not given): inactive: 7.62%.
Next, `O=C(OC1CN2CCC1CC2)C1c2ccccc2Oc2ccccc21` (stereo not given): inactive: 4.23%; `O=C(NCC1(N2CCCCC2)CCCCC1)c1ccc(Cl)s1`: inactive: 1.98%; `N#CC1(Nc2ccccc2)CCN(Cc2ccccc2)CC1`: inactive: 9.83%.
Regarding `COc1ccc(Cl)cc1C(=O)NCC1(N2CCOCC2)CCCCC1`, the inhibition was inactive: 0.76%.
Regarding `CCOC(=O)N1CCC(Nc2ccc(OC)cc2)CC1`, the inhibition is inactive: 1.44%.
In the case of `CCCCn1nnnc1C(c1ccc(OC)cc1)N1CCC(n2c(=O)[nH]c3ccccc32)CC1` (stereo not given), the inhibition was inactive: -1.21%.
Consider `COc1ccc(C(=O)NCC2(N3CCCCC3)CCCCC2)cc1`, for which the inhibition was inactive: 6.75%.
To `CCC(c1nnnn1C1CCCC1)N1CCC(n2c(=O)[nH]c3ccccc32)CC1` (stereo not given) belongs inactive: 9.69%.
For the compound `COc1ccc(C(=O)NCC2(N3CCCCC3)CCCCC2)c(OC)c1OC`, the inhibition was inactive: 2.24%.
With `CC(C)(C)OC(=O)N1CCC(N(C(=O)c2ccccc2)c2ccc(F)cc2)CC1`, the inhibition is inactive: -1.4%.
Consider `O=C(NCC1(N2CCCCC2)CCCCC1)c1ccc(=O)[nH]c1`, for which the inhibition was inactive: -5.32%.
Next, `CCCCn1nnnc1C(c1cccs1)N1CCC(n2c(=O)[nH]c3ccccc32)CC1` (stereo not given): inactive: 2.99%; `CCCCn1nnnc1C(CC)N1CCC(n2c(=O)[nH]c3ccccc32)CC1` (stereo not given): inactive: 8.01%.
Next, `O=C(NCC1(N2CCCCC2)CCCCC1)c1cccs1`: inactive: 12.7%; `CSc1ccccc1C(=O)NCC1(N2CCCCC2)CCCCC1`: inactive: 8.13%.
To `Cc1cccc(NC2(C#N)CCN(Cc3ccccc3)CC2)c1` belongs inactive: -16.3%.
`O=c1[nH]c2ccccc2n1C1CCN(C(c2ccccc2)c2nnnn2C2CCCCC2)CC1` (stereo not given): the inhibition was inactive: -8.02%.
Next, `COc1cc(C(=O)NCC2(N(C)C)CCCCC2)ccc1OC(F)F`: inactive: -13.6%; `CCOC(=O)N1CCC(Nc2cccc(C)c2)CC1`: inactive: -5.7%; `O=c1[nH]c2ccccc2n1C1CCN(C(c2cccc3ccccc23)c2nnnn2C2CCCC2)CC1` (stereo not given): inactive: 7%.
Consider `CC(C)(C)n1nnnc1C(c1ccccc1)N1CCC(n2c(=O)[nH]c3ccccc32)CC1` (stereo not given), for which the inhibition was inactive: -3.54%.
Next, `O=C1CCN(Cc2ccccc2)CC1`: inactive: 3.62%.
Next, `CCOc1ccc(C)cc1CN(CCCl)CCCl`: inactive: -6.3%; `O=C(NCC1(N2CCCCC2)CCCCC1)c1ccc(F)cc1`: inactive: 7.59%.
To `CCCCOc1ccc(C(=O)NCC2(N3CCOCC3)CCCCC2)cc1` belongs inactive: 14.2%; to `CCCCn1nnnc1C(c1cc2ccccc2o1)N1CCC(n2c(=O)[nH]c3ccccc32)CC1` (stereo not given), inactive: -0.49%; to `O=P1(N(CCCl)CCCl)SCCCS1`, inactive: -9.88%.
Regarding `CCOC(=O)N1CCC(Nc2ccc(F)cc2)CC1`, the inhibition is inactive: -21.4%.
To `COc1ccc(NC2CCN(CCc3ccccc3)CC2)c(OC)c1` belongs inactive: 2.22%.
To `O=C(NCC1(N2CCCCC2)CCCCC1)c1cccc(C(F)(F)F)c1` belongs inactive: -6.32%; to `O=C(NCC1(N2CCOCC2)CCCCC1)c1cc(=O)[nH]c2ccccc12`, inactive: -0.75%; to `COc1cc(C(=O)NCC2(N3CCCCC3)CCCCC2)ccc1OC(F)F`, inactive: 10.5%.
In the case of `CCCCn1nnnc1C(c1cccc2ccccc12)N1CCC(n2c(=O)[nH]c3ccccc32)CC1` (stereo not given), the inhibition is inactive: 2.87%.
Next, `COc1ccc(NC2CCN(C(=O)OC(C)(C)C)CC2)cc1`: inactive: -22%; `CC(C)c1ccc(C(=O)NCC2(N3CCOCC3)CCCCC2)cc1`: inactive: -8.96%.
Next, `CN1CCN(CCOC(=O)C(O)(c2ccccc2)c2ccccc2)CC1`: inactive: -0.56%; `CC(C)(C)n1nnnc1C(c1ccccc1OC(F)(F)F)N1CCC(n2c(=O)[nH]c3ccccc32)CC1` (stereo not given): inactive: 6.43%; `O=C(NCC1(N2CCCCC2)CCCCC1)c1ccc(OC(F)F)cc1`: inactive: -16.1%.
To `CCN1CCC(Nc2ccc(Cl)cc2)CC1` belongs inactive: -6.35%; to `N#CC1(Nc2ccccc2)CCN(CCc2ccccc2)CC1`, inactive: 10.5%.
Take `O=c1[nH]c2ccccc2n1C1CCN(C(c2ccccc2OC(F)(F)F)c2nnnn2C2CCCC2)CC1` (stereo not given): the inhibition was inactive: -2.02%.
Next, `O=C(NCC1(N2CCCCC2)CCCCC1)c1cccc([N+](=O)[O-])c1`: inactive: -4.94%; `CSc1ccc(C(=O)NCC2(N3CCOCC3)CCCCC2)cc1`: inactive: -22.7%; `O=C(NCC1(N2CCCCC2)CCCCC1)c1cncc(Br)c1`: inactive: -3.14%.
To `CN1CCC(Nc2cccc(F)c2)CC1` belongs inactive: 18.4%; to `COc1ccc(C(c2nnnn2C2CCCC2)N2CCC(n3c(=O)[nH]c4ccccc43)CC2)cc1` (stereo not given), inactive: -7.24%; to `Cc1ccc(C(=O)NCC2(N(C)C)CCCCC2)o1`, inactive: -7.39%.
Next, `CCCOc1ccc(C(=O)NCC2(N(C)C)CCCCC2)cc1OC`: inactive: -6.9%; `CC(C)c1ccc(NC2CCN(C(=O)OC(C)(C)C)CC2)cc1`: inactive: -1.65%; `COC(=O)C1(Nc2ccccc2)CCN(Cc2ccccc2)CC1`: inactive: 4.85%.
For `COc1ccc(CN(CCCl)CCCl)cc1Cl`, the inhibition is inactive: -2.08%.
To `CN(C)c1cccc(C(=O)NCC2(N3CCCCC3)CCCCC2)c1` belongs inactive: -1.45%.
Next, `COc1cc(OC)c(C(=O)NCC2(N(C)C)CCCCC2)cc1OC`: inactive: -9.58%; `O=C(NCC1(N2CCOCC2)CCCCC1)c1cc(F)c(F)cc1Cl`: inactive: 0.25%; `CCC(c1nnnn1C(C)(C)C)N1CCC(n2c(=O)[nH]c3ccccc32)CC1` (stereo not given): inactive: 10.9%.
On to `CCCCn1nnnc1C(c1ccnc2ccccc12)N1CCC(n2c(=O)[nH]c3ccccc32)CC1` (stereo not given), for which the inhibition is inactive: 3.1%.
To `COc1cccc(C(c2nnnn2C(C)(C)C)N2CCC(n3c(=O)[nH]c4ccccc43)CC2)c1OC` (stereo not given) belongs inactive: -12.4%; to `CCOC(=O)N1CCC(Nc2ccc(C)cc2)CC1`, inactive: -7.37%.
To `N/C(=N\O)c1c(N)no[n+]1[O-]` belongs inactive: -0.64%; to `O=C(OC1CN2CCC1CC2)C1c2ccccc2C=Cc2ccccc21` (stereo not given), inactive: 9.47%.
To `O=c1[nH]c2ccccc2n1C1CCN(C(c2cccs2)c2nnnn2C2CCCC2)CC1` (stereo not given) belongs inactive: -6.79%; to `CCCCn1nnnc1C(c1cccc(OC)c1OC)N1CCC(n2c(=O)[nH]c3ccccc32)CC1` (stereo not given), inactive: -2.14%.
As for `CCCCn1nnnc1C(c1ccccc1)N1CCC(n2c(=O)[nH]c3ccccc32)CC1` (stereo not given), the inhibition is inactive: -3.46%.
Next, `COc1cc(C(=O)NCC2(N3CCOCC3)CCCCC2)cc(OC)c1C`: inactive: -16.9%.
In the case of `O=C(NCC1(N2CCOCC2)CCCCC1)c1cc(Br)ccc1Cl`, the inhibition was inactive: -10.4%.
For the compound `O=c1[nH]c2ccccc2n1C1CCN(C(c2cccs2)c2nnnn2C2CCCCC2)CC1` (stereo not given), the inhibition was inactive: -1.35%.
Next, `NC(=O)C1(Nc2ccccc2)CCN(Cc2ccccc2)CC1`: inactive: -6.06%; `COc1ccc(C(=O)NCC2(N3CCOCC3)CCCCC2)cc1OC`: inactive: -6.73%.
Next, `O=c1[nH]c2ccccc2n1C1CCN(C(c2ccnc3ccccc23)c2nnnn2C2CCCC2)CC1` (stereo not given): inactive: -1.18%.
Next, `CN(C)C1(CNC(=O)c2cccc(C#N)c2)CCCCC1`: inactive: 0.99%; `c1ccc(CN2CCC(Nc3ccccc3)CC2)cc1`: inactive: -3.14%; `C/C(N)=N\P(=O)(Oc1ccccc1)Oc1ccccc1`: inactive: -5.55%.
For the compound `CCCN1CCC(Nc2cc(OC)cc(OC)c2)CC1`, the inhibition is inactive: -8.77%.
In the case of `O=c1[nH]c2ccccc2n1C1CCN(C(c2ccccc2)c2nnnn2C2CCCC2)CC1` (stereo not given), the inhibition was inactive: 1.39%.
`Cc1cc(N(CCCl)CCCl)ccc1C=O`: the inhibition is inactive: 4.15%.
Next, `CC(C)(C)n1nnnc1C(c1cccc2ccccc12)N1CCC(n2c(=O)[nH]c3ccccc32)CC1` (stereo not given): inactive: 5.5%; `N#Cc1ccc(C(=O)NCC2(N3CCCCC3)CCCCC2)cc1`: inactive: -2.16%.
To `CC(C)(C)OC(=O)N1CCC(N(C(=O)c2ccccc2)c2ccc(Cl)cc2)CC1` belongs inactive: -17.6%; to `Cc1ccccc1NC1(C#N)CCN(Cc2ccccc2)CC1`, inactive: 6.5%; to `CC(C)(C)n1nnnc1C(c1ccnc2ccccc12)N1CCC(n2c(=O)[nH]c3ccccc32)CC1` (stereo not given), inactive: 0.31%.
Next, `COc1ccc(C(c2nnnn2C2CCCCC2)N2CCC(n3c(=O)[nH]c4ccccc43)CC2)cc1` (stereo not given): inactive: 1.94%; `CCN1CCC(Nc2cccc(F)c2)CC1`: inactive: 0.7%.
In the case of `O=C(NCC1(N2CCCCC2)CCCCC1)c1ccco1`, the inhibition was inactive: -4.63%.
To `Cn1c(=O)[nH]cc(N(CCCl)CCCl)c1=O` belongs inactive: 16.3%; to `CN(C)c1ccc(C(=O)NCC2(N3CCCCC3)CCCCC2)cc1`, inactive: -6.42%; to `CC(=O)N(c1ccccc1)C1CCNCC1`, inactive: 3.53%.
`COc1cccc(C(c2nnnn2C2CCCCC2)N2CCC(n3c(=O)[nH]c4ccccc43)CC2)c1OC` (stereo not given): the inhibition was inactive: 1.56%.
In the case of `CCC(c1nnnn1C1CCCCC1)N1CCC(n2c(=O)[nH]c3ccccc32)CC1` (stereo not given), the inhibition is inactive: -9.82%.
To `O=c1[nH]c2ccccc2n1C1CCN(C(c2ccnc3ccccc23)c2nnnn2C2CCCCC2)CC1` (stereo not given) belongs inactive: -4.03%; to `COc1cc(OC)cc(C(=O)NCC2(N3CCCCC3)CCCCC2)c1`, inactive: 8.46%; to `Cc1ccc(C(=O)NCC2(N3CCCCC3)CCCCC2)o1`, inactive: 1.51%.
Next, `Fc1ccccc1NC1CCN(Cc2ccccc2)CC1`: inactive: -4.52%; `Cc1ccc(NC2(C#N)CCN(Cc3ccccc3)CC2)cc1`: inactive: -12.3%; `COc1cccc(C(=O)N(c2cc(C)cc(C)c2)C2CCN(C(=O)OC(C)(C)C)CC2)c1`: inactive: 12%.
Next, `COc1cc(OC)cc(C(=O)NCC2(N3CCOCC3)CCCCC2)c1`: inactive: 1.14%; `COc1cccc(C(c2nnnn2C2CCCC2)N2CCC(n3c(=O)[nH]c4ccccc43)CC2)c1OC` (stereo not given): inactive: -1.35%.
Regarding `CCC(CO)(C(=O)OC1CN2CCC1CC2)c1ccccc1` (stereo not given), the inhibition was inactive: -7.87%.
Next, `CN1CCC(Nc2ccc(Cl)cc2)CC1`: inactive: -6.06%; `CCOc1ncccc1C(=O)NCC1(N2CCOCC2)CCCCC1`: inactive: -5.03%.
In the case of `CN1CCC(Nc2ccc(F)c(Cl)c2)CC1`, the inhibition was inactive: 15.7%.
Regarding `CC(C)(C)OC(=O)N1CCC(Nc2ccccc2)CC1`, the inhibition is inactive: 0.73%.
With `NN(c1ccccc1)C1CCN(CCc2ccccc2)CC1`, the inhibition was inactive: 0.01%.
To `O=C(O)C1(Nc2ccccc2)CCN(Cc2ccccc2)CC1` belongs inactive: 10.5%; to `CCCOc1ccc(C(=O)NCC2(N(C)C)CCCCC2)cc1`, inactive: -2.81%; to `O=c1[nH]c2ccccc2n1C1CCN(C(c2cc3ccccc3o2)c2nnnn2C2CCCC2)CC1` (stereo not given), inactive: -10.1%.
